Assay results published in PubChem BioAssay (NCI).
The list shows a part of the results, in another mix than the full data.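 Compound tested at a single concentration for 48 hours in 96-well plates; a percent growth value below 10 was scored as active.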 The source made the active and inactive calls.

Key:
Assay in all cases: NCI-60 one-dose screen, 48 h (100 = growth as untreated, 0 = no growth, -100 = all killed)
Details in all cases: 10 µM
HCT-15 colon = system: HCT-15 colon
HT29 colon = system: HT29 colon
SNB-75 CNS = system: SNB-75 CNS
SNB-19 CNS = system: SNB-19 CNS
U251 CNS = system: U251 CNS
PC-3 prostate = system: PC-3 prostate
SK-MEL-5 melanoma = system: SK-MEL-5 melanoma
UACC-62 melanoma = system: UACC-62 melanoma
LOX IMVI melanoma = system: LOX IMVI melanoma
SK-MEL-28 melanoma = system: SK-MEL-28 melanoma

**Q.** `NC(=O)C1(Nc2ccccc2)CCNCC1` was tested. Which growth (HCT-15 colon) did it give?
**A.** inactive: 103%

**Q.** What about the growth (HT29 colon) of the same compound?
**A.** inactive: 96.5%

**Q.** What about the growth (SNB-75 CNS) of the same compound?
**A.** inactive: 106%

**Q.** What about the growth (SNB-19 CNS) of the same compound?
**A.** inactive: 107%

**Q.** What about the growth (U251 CNS) of the same compound?
**A.** inactive: 101%

**Q.** And the growth (PC-3 prostate)?
**A.** inactive: 98.5%

**Q.** What about the growth (SK-MEL-5 melanoma) of the same compound?
**A.** inactive: 93.6%

**Q.** What about the growth (UACC-62 melanoma) of the same compound?
**A.** inactive: 98.1%

**Q.** What about the growth (LOX IMVI melanoma) of the same compound?
**A.** inactive: 101%

**Q.** And the growth (SK-MEL-28 melanoma)?
**A.** inactive: 115%

**Q.** Which results are given for `O=C(O)c1ccc(N(CCCl)CCCl)cc1`?
**A.** growth (HCT-15 colon): inactive: 102%; growth (HT29 colon): inactive: 97.5%; growth (SNB-75 CNS): inactive: 104%; growth (SNB-19 CNS): inactive: 112%; growth (U251 CNS): inactive: 109%; growth (PC-3 prostate): inactive: 99.3%; growth (SK-MEL-5 melanoma): inactive: 101%; growth (UACC-62 melanoma): inactive: 106%; growth (LOX IMVI melanoma): inactive: 92.9%; growth (SK-MEL-28 melanoma): inactive: 119%

**Q.** Which growth (HCT-15 colon) does the source give for `O=Cc1ccc(N(CCCl)CCCl)cc1Cl` here?
**A.** inactive: 86.1%

**Q.** What about the growth (HT29 colon) of the same compound?
**A.** inactive: 72.9%

**Q.** And the growth (SNB-75 CNS)?
**A.** inactive: 80.6%

**Q.** What about the growth (SNB-19 CNS) of the same compound?
**A.** inactive: 97.4%

**Q.** And the growth (U251 CNS)?
**A.** inactive: 46.5%

**Q.** What about the growth (PC-3 prostate) of the same compound?
**A.** inactive: 67.5%

**Q.** And the growth (SK-MEL-5 melanoma)?
**A.** inactive: 70%

**Q.** And the growth (UACC-62 melanoma)?
**A.** active: -4.06%

**Q.** And the growth (LOX IMVI melanoma)?
**A.** inactive: 93.6%

**Q.** What about the growth (SK-MEL-28 melanoma) of the same compound?
**A.** inactive: 88.8%

**Q.** Which results are given for `Cc1ccc(CN(CCCl)CCCl)cc1C`?
**A.** growth (HCT-15 colon): inactive: 98.1%; growth (HT29 colon): inactive: 92.6%; growth (SNB-75 CNS): inactive: 72%; growth (SNB-19 CNS): inactive: 105%; growth (U251 CNS): inactive: 94.7%; growth (PC-3 prostate): inactive: 93.1%; growth (SK-MEL-5 melanoma): inactive: 98.1%; growth (UACC-62 melanoma): inactive: 98%; growth (LOX IMVI melanoma): inactive: 93.7%; growth (SK-MEL-28 melanoma): inactive: 101%

**Q.** Which growth (HCT-15 colon) does the source give for `N#CC1(Nc2ccccc2)CCN(Cc2ccccc2)CC1` here?
**A.** inactive: 104%

**Q.** And the growth (HT29 colon)?
**A.** inactive: 106%

**Q.** And the growth (SNB-75 CNS)?
**A.** inactive: 76.2%

**Q.** What about the growth (SNB-19 CNS) of the same compound?
**A.** inactive: 90.8%

**Q.** And the growth (U251 CNS)?
**A.** inactive: 103%

**Q.** And the growth (PC-3 prostate)?
**A.** inactive: 98.5%

**Q.** And the growth (SK-MEL-5 melanoma)?
**A.** inactive: 104%

**Q.** And the growth (UACC-62 melanoma)?
**A.** inactive: 86.8%

**Q.** And the growth (LOX IMVI melanoma)?
**A.** inactive: 99.2%

**Q.** What about the growth (SK-MEL-28 melanoma) of the same compound?
**A.** inactive: 131%

**Q.** Which growth (HCT-15 colon) does the source give for `Cc1ccc(CN(CCCl)CCCl)cc1` here?
**A.** inactive: 100%

**Q.** And the growth (HT29 colon)?
**A.** inactive: 92.6%

**Q.** What about the growth (SNB-75 CNS) of the same compound?
**A.** inactive: 83.2%

**Q.** And the growth (SNB-19 CNS)?
**A.** inactive: 100%

**Q.** And the growth (U251 CNS)?
**A.** inactive: 82.6%

**Q.** And the growth (PC-3 prostate)?
**A.** inactive: 89%

**Q.** What about the growth (SK-MEL-5 melanoma) of the same compound?
**A.** inactive: 80.7%

**Q.** And the growth (UACC-62 melanoma)?
**A.** inactive: 89.7%

**Q.** And the growth (LOX IMVI melanoma)?
**A.** inactive: 75.6%

**Q.** What about the growth (SK-MEL-28 melanoma) of the same compound?
**A.** inactive: 110%

**Q.** What does the source list for `Fc1ccc(CCN(CCCl)CCCl)cc1`?
**A.** growth (HCT-15 colon): inactive: 99.3%; growth (HT29 colon): inactive: 98.1%; growth (SNB-75 CNS): inactive: 70.5%; growth (SNB-19 CNS): inactive: 107%; growth (U251 CNS): inactive: 103%; growth (PC-3 prostate): inactive: 95%; growth (SK-MEL-5 melanoma): inactive: 102%; growth (UACC-62 melanoma): inactive: 100%; growth (LOX IMVI melanoma): inactive: 102%; growth (SK-MEL-28 melanoma): inactive: 106%

**Q.** Which results are given for `COc1cc(CN(CCCl)CCBr)cc(OC)c1`?
**A.** growth (HCT-15 colon): inactive: 110%; growth (HT29 colon): inactive: 106%; growth (SNB-75 CNS): inactive: 78.8%; growth (SNB-19 CNS): inactive: 117%; growth (U251 CNS): inactive: 98.9%; growth (PC-3 prostate): inactive: 91.1%; growth (SK-MEL-5 melanoma): inactive: 107%; growth (UACC-62 melanoma): inactive: 108%; growth (LOX IMVI melanoma): inactive: 98.1%; growth (SK-MEL-28 melanoma): inactive: 107%

**Q.** For `N#CC1(Nc2ccc(Cl)cc2)CCN(Cc2ccccc2)CC1`, which growth (HCT-15 colon) is on record?
**A.** inactive: 45.9%

**Q.** And the growth (HT29 colon)?
**A.** inactive: 86.9%

**Q.** And the growth (SNB-75 CNS)?
**A.** inactive: 81.7%

**Q.** What about the growth (SNB-19 CNS) of the same compound?
**A.** inactive: 85.6%

**Q.** And the growth (U251 CNS)?
**A.** inactive: 74.9%

**Q.** What about the growth (PC-3 prostate) of the same compound?
**A.** inactive: 65.2%

**Q.** And the growth (SK-MEL-5 melanoma)?
**A.** inactive: 36.2%

**Q.** What about the growth (UACC-62 melanoma) of the same compound?
**A.** active: -0.519%

**Q.** And the growth (LOX IMVI melanoma)?
**A.** inactive: 18%

**Q.** What about the growth (SK-MEL-28 melanoma) of the same compound?
**A.** inactive: 84.7%

**Q.** For `Cc1cc(O)c(CN(CC(C)Cl)CC(C)Cl)cc1C` (stereo not drawn), which growth (HCT-15 colon) is on record?
**A.** inactive: 109%

**Q.** And the growth (HT29 colon)?
**A.** inactive: 99.9%

**Q.** And the growth (SNB-75 CNS)?
**A.** inactive: 87.2%

**Q.** And the growth (SNB-19 CNS)?
**A.** inactive: 112%

**Q.** And the growth (U251 CNS)?
**A.** inactive: 111%

**Q.** What about the growth (PC-3 prostate) of the same compound?
**A.** inactive: 120%

**Q.** What about the growth (SK-MEL-5 melanoma) of the same compound?
**A.** inactive: 110%

**Q.** What about the growth (UACC-62 melanoma) of the same compound?
**A.** inactive: 111%

**Q.** What about the growth (LOX IMVI melanoma) of the same compound?
**A.** inactive: 97.7%

**Q.** And the growth (SK-MEL-28 melanoma)?
**A.** inactive: 105%

**Q.** What does the source list for `N#Cc1ccc(N(CCCl)CCCl)cc1`?
**A.** growth (HCT-15 colon): inactive: 94.8%; growth (HT29 colon): inactive: 101%; growth (SNB-75 CNS): inactive: 81%; growth (SNB-19 CNS): inactive: 120%; growth (U251 CNS): inactive: 104%; growth (PC-3 prostate): inactive: 84.2%; growth (SK-MEL-5 melanoma): inactive: 106%; growth (UACC-62 melanoma): inactive: 101%; growth (LOX IMVI melanoma): inactive: 106%; growth (SK-MEL-28 melanoma): inactive: 107%

**Q.** Which results are given for `NC(Cc1ccccc1N(CCCl)CCCl)C(=O)O` (stereo not drawn)?
**A.** growth (HCT-15 colon): inactive: 83%; growth (HT29 colon): inactive: 90%; growth (SNB-75 CNS): inactive: 53.2%; growth (SNB-19 CNS): inactive: 81.8%; growth (U251 CNS): inactive: 65.4%; growth (PC-3 prostate): inactive: 96.9%; growth (SK-MEL-5 melanoma): inactive: 94.5%; growth (UACC-62 melanoma): inactive: 64.2%; growth (LOX IMVI melanoma): inactive: 55.9%; growth (SK-MEL-28 melanoma): inactive: 92.4%

**Q.** Which growth (HCT-15 colon) does the source give for `OCC#CCN(CCCl)CCCl` here?
**A.** inactive: 108%

**Q.** What about the growth (HT29 colon) of the same compound?
**A.** inactive: 105%

**Q.** And the growth (SNB-75 CNS)?
**A.** inactive: 92.4%

**Q.** And the growth (SNB-19 CNS)?
**A.** inactive: 109%

**Q.** And the growth (PC-3 prostate)?
**A.** inactive: 88.5%

**Q.** What about the growth (SK-MEL-5 melanoma) of the same compound?
**A.** inactive: 97.1%

**Q.** What about the growth (UACC-62 melanoma) of the same compound?
**A.** inactive: 87.1%

**Q.** And the growth (LOX IMVI melanoma)?
**A.** inactive: 73.5%

**Q.** And the growth (SK-MEL-28 melanoma)?
**A.** inactive: 111%

**Q.** What does the source list for `O=c1[nH]cc(CN(CCCl)CCCl)c(=O)[nH]1`?
**A.** growth (HCT-15 colon): inactive: 103%; growth (HT29 colon): inactive: 100%; growth (SNB-75 CNS): inactive: 93.1%; growth (SNB-19 CNS): inactive: 98.3%; growth (U251 CNS): inactive: 101%; growth (PC-3 prostate): inactive: 92.7%; growth (SK-MEL-5 melanoma): inactive: 101%; growth (UACC-62 melanoma): inactive: 94.5%; growth (LOX IMVI melanoma): inactive: 99.2%; growth (SK-MEL-28 melanoma): inactive: 102%

**Q.** With `ClCCN(CCCl)Cc1nc2cc(Cl)c(Cl)cc2[nH]1` as the compound, how does the growth (HCT-15 colon) read?
**A.** inactive: 74.5%

**Q.** And the growth (HT29 colon)?
**A.** inactive: 64.8%

**Q.** What about the growth (SNB-75 CNS) of the same compound?
**A.** inactive: 78.6%

**Q.** And the growth (SNB-19 CNS)?
**A.** inactive: 71.1%

**Q.** What about the growth (U251 CNS) of the same compound?
**A.** inactive: 61.7%

**Q.** And the growth (PC-3 prostate)?
**A.** inactive: 84.9%

**Q.** And the growth (SK-MEL-5 melanoma)?
**A.** inactive: 89.9%

**Q.** What about the growth (UACC-62 melanoma) of the same compound?
**A.** inactive: 63.3%

**Q.** And the growth (SK-MEL-28 melanoma)?
**A.** inactive: 103%
